Target: F-actin (actin filaments polymerised from G-actin purified from rabbit muscle) (rabbit) (UniProt P68135)
Test: co-sedimentation; F-actin and EFA6-Ct, each 4 µM, incubated together for 15 min, low-speed centrifugation (16000 g, 5 min); supernatants and pellets by SDS-PAGE and Coomassie blue; four independent experiments

percent of EFA6-Ct in the low-speed pellet with F-actin: 24%
Substance: N-terminally His-tagged EFA6-Ct (C-terminal domain of EFA6A, residues 490-645) (domain or fragment)
